Measured values published in ChEMBL document CHEMBL2057181, “Crystal structure of phosphoethanolamine methyltransferase from Plasmodium falciparum in complex with amodiaquine” (Bioorg Med Chem Lett, 2012).
pIC50: −log10 of the molar value.

Target: T1, Phosphoethanolamine N-methyltransferase (Plasmodium falciparum, UniProt Q8IDQ9)
T1 sequence (Q8IDQ9 whole entry): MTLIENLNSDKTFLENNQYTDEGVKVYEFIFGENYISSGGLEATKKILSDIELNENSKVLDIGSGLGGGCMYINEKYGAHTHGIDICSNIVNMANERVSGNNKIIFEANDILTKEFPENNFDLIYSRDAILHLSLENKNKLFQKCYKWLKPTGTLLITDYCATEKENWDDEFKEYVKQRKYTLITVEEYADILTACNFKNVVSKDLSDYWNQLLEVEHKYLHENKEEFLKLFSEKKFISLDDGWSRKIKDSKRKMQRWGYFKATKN
Assay: Inhibition of Plasmodium falciparum phosphoethanolamine methyltransferase using phospethanolamine as substrate by radiochemical assay in presence of S-adenosylmethionine

CCN(CC)Cc1cc(Nc2ccnc3cc(Cl)ccc23)ccc1O
pIC50: 2.87
